Article PMC3152598 (Biochemical pharmacology, 2011)

Chains of the proteins cited; added tags and fusions are not shown.
UniProt P0DMS8, whole entry: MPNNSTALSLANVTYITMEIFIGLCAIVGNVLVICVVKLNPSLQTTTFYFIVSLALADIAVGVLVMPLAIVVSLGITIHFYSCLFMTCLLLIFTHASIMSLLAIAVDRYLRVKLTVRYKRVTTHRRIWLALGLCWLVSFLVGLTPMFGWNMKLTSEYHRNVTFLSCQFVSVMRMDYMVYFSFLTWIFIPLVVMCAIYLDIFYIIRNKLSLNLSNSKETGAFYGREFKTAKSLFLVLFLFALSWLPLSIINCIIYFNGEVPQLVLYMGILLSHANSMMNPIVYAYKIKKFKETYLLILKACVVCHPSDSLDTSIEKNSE

Experiments:
Settings in all cases: agonist alone; normalized to NECA = 100%
human A3 AR [1] = target: T1, human A3 AR (Homo sapiens, UniProt P0DMS8)
human A3 AR [2] = target: T1, human A3 AR; remark: listed apart in the source
human A3 AR [3] = target: T1, human A3 AR; assay: Membrane hyperpolarization
human A3 AR [4] = target: T1, human A3 AR; assay: Cyclic AMP accumulation assay

CCNC(=O)[C@H]1O[C@@H](n2cnc3c(N)ncnc32)[C@H](O)[C@@H]1O [NECA, adenosine-5′-N-ethyluronamide, reference compound]
100%: Ca2+ Emax (human A3 AR [1]) | β-arrestin2 Emax (human A3 AR [2]) | hyperpolarization Emax (human A3 AR [3]) | cyclic AMP Emax (human A3 AR [4])
